≈ marks a conversion by molar mass, not a printed value.
How the values were obtained:
physchem = assay type: physicochemical
[1] = Solubility of flecainide in D/L-lactic acid media; assay type: physicochemical; conditions: 20% w/v HPβCD in water with DL-lactic acid, aqueous with cosolvent or surfactant or cyclodextrin, thermodynamic from solid, pH 6.4
Protocol: D-lactic acid, L-lactic acid, or DL-lactic acid was slowly added portionwise to the suspension while stirring. The system was left to equilibrate for 30 minutes, and the pH was determined. The pH was then adjusted to 5.2-6 with NaOH if necessary. After addition of NaOH, the system was again left to equilibrate for 30 minutes before pH was measured. After the desired pH was achieved, the suspension was stirred (1000 rpm) at ambient temperature for 48 hours. At 24 hours and 48 hours of stirring, samples of each solution were centrifuged at 10000 rpm for 2 minutes and filtered with a 0.45 μm membrane to obtain supernatant for pH determination and HPLC analysis. Solids from each sample were also characterized by X-ray powder diffraction (XRPD) analysis.

Row | SMILES | solubility (physchem; pH 5.4, aqueous with cosolvent or surfactant or cyclodextrin, Solubility (mg/mL)) [mg/mL] | solubility (physchem; pH 5.5) [mg/mL] | solubility at 48 h [1] [mg/mL]
1 | O=C(NCC1CCCCN1)c1cc(OCC(F)(F)F)ccc1OCC(F)(F)F (stereo not drawn) [flecainide acetate] | 71.5 | 71.1 | –
2 | O=C(NCC1CCCCN1)c1cc(OCC(F)(F)F)ccc1OCC(F)(F)F (stereo not drawn) [flecainide] | – | – | 71.3 (≈ 172 mM)

From US12576073B2, “Antiarrhythmic formulation” (InCarda Therapeutics, Inc., priority 2019, dated 2026)
